Assay results: paper PMC4906314, “Direct interaction of beta-amyloid with Na,K-ATPase as a putative regulator of the enzyme function” (Scientific Reports, 2016)

Legend:
[1] = target: Na,K-ATPase (α1β1 isozyme) from duck salt glands (duck); experiment: ITC; MicroCal iTC200, 25 °C, 10 mM imidazole pH 7.5, 130 mM NaCl, 30 mM KCl, 3 mM MgCl2; Aβ(1-42) (50-200 μM) in the syringe, Na,K-ATPase (5-20 μM) in the cell; one set of binding sites
[2] = target: Na,K-ATPase (α1β1 isozyme) from duck salt glands (duck)

Kd [1]: 3 µM
dH [1]: -13.2 kcal/mol
stoichiometry N [1]: 1.1
hydrolytic activity of purified Na,K-ATPase (ouabain-sensitive ATP cleavage, 37 °C, 3 mM ATP); Aβ(1-42) concentration at half activity (IC50) [2]: 24 µM
Substance: Synthetic peptide Aβ(1-42)
